Earlier results in patent US12076400B2, “Methods of using a bispecific antigen-binding construct targeting HER2 in combination with CDK4/6 inhibitors for the treatment of breast cancer” (c/o Zymeworks BC Inc., priority 2019, dated 2024).

Sequences of proteins named here, by UniProt entry; tags and fusion partners are left off.
UniProt P03372, whole entry: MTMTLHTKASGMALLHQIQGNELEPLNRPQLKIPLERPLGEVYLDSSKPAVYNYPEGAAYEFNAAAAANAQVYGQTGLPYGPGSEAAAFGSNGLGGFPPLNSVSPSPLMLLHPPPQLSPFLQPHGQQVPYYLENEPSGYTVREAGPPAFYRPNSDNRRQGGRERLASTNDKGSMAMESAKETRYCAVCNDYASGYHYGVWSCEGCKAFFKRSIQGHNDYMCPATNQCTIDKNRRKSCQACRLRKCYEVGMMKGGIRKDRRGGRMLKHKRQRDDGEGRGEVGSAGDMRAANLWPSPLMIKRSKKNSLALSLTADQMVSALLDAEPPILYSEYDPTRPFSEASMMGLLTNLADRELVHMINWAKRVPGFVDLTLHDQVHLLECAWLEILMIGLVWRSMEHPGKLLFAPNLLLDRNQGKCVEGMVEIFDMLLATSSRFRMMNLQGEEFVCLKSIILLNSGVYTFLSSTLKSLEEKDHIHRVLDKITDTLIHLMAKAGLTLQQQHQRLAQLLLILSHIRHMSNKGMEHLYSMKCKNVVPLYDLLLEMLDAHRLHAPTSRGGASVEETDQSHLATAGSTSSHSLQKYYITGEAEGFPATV

Columns and labels:
[1] = target: T1, ER protein in human breast cancer cells (Homo sapiens, UniProt P03372)
T1 construct: endogenous in cells

estrogen receptor (ER) = estrogen receptor (ER) (Homo sapiens, UniProt P03372); settings: competitive binding

Substance: 7-alpha-[9-(4,4,5,5,5-penta fluoropentylsulphinyl) nonyl]estra-1,3,5-(10)-triene-3,17beta-diol [Fulvestrant]
- Effect on ER protein [1]: downregulates the ER protein
- Binding affinity to the ER (estrogen receptor (ER)): affinity comparable to that of estradiol
